# Measurements: patent publication EP4843994A1, “NOVEL PEPTIDE HAVING MUSCLE FORMATION-PROMOTING ACTIVITY, ANTI-OBESITY ACTIVITY AND ANTI-DIABETIC ACTIVITY AND USES THEREOF” (dated 2026)
# Tests used:
# HepG2 cells [1] = assay: Fat accumulation in hepatocytes (Oil-Red O staining, oleic acid induced); conditions: 500 µM oleic acid, peptide 5 µM, 50 µM, 48 hours
# Description: HepG2 cells (human-derived hepatocytes) were cultured in DMEM medium containing 1% P/S and 10% FBS. When cell confluency reached approximately 70 to 80%, cells were seeded into a 12-well culture plate at a concentration of 1 x 10^5 cells/1 ml. Subsequently, when cell confluency reached approximately 70 to 80% in a 12-well culture plate, the medium was replaced with serum-free DMEM. After 4 hours, lipid accumulation was induced by replacing the medium with serum-free DMEM (1% BSA) supplemented with 500 µM oleic acid (Sigma, St. Louis, MO, USA). After inducing lipid accumulation for 24 hours, the medium was replaced with serum-free DMEM (1% BSA) supplemented with 500 µM oleic acid (Sigma, St. Louis, MO, USA) and peptides (5 µM, 50 µM), and cultured for 48 hours. To compare the degree of adipogenesis, the cells were washed twice with PBS and fixed with 10% formaldehyde. Oil-Red O solution (Sigma, USA) was added to the fixed cells to stain lipid globules for 2 hours, after which they were washed with distilled water (DW) and observed under a microscope. Subsequently, the distilled water was removed, the cells were dried, washed with isopropanol, and the absorbance was measured using a Spectrophotometer (SPECTRAMAX M2e) at an OD wavelength of 540 nm.
# HepG2 cells [2] = assay: Expression of fatty acid oxidation-related proteins in hepatocytes (Western blot); conditions: 500 µM oleic acid, peptide 5 µM, 50 µM, 48 hours
# Description: HepG2 cells (human-derived hepatocytes) were cultured in DMEM medium containing 1% P/S and 10% FBS. When cell confluency reached approximately 70 to 80%, cells were seeded into a 12-well culture plate at a concentration of 2 x 10^5 cells/ml. Subsequently, when cell confluency in the 12-well culture plate reached approximately 70 to 80%, the medium was replaced with serum-free DMEM medium. After 4 hours, lipid accumulation was induced by replacing the solution with serum-free DMEM (1% BSA) supplemented with 500 µM oleic acid (Sigma, St. Louis, MO, USA). After inducing lipid accumulation for 24 hours, the solution was replaced with serum-free DMEM (1% BSA) supplemented with 500 µM oleic acid (Sigma, St. Louis, MO, USA) and peptides (5 µM, 50 µM), and cultured for 48 hours. After culture, lysis buffer was added to lyse the cells, and the cell lysate was centrifuged at 4°C at 12,000 rpm for 30 minutes to obtain the protein. The obtained protein was quantified using a BCA kit. The protein was electrotransferred onto a membrane after performing SDS-PAGE (sodium dodecyl sulfate-polyacrylamide gel electrophoresis). After blocking the protein-attached membrane with 5% skim milk, the membrane was treated with the primary antibody and incubated overnight at 4°C. […]
# C2C12 cells = assay: Expression of differentiation marker genes and muscle protein synthesis signaling genes in differentiation-induced myoblasts (RT-PCR); conditions: differentiation induced with 2% horse serum, 3 days
# Description: C2C12 cells (mouse-derived myoblasts) were cultured in DMEM medium containing 1% P/S and 2% BCS (bovine calf serum). When cell confluency reached 70 to 80%, cells were seeded into 6-well culture plates at a concentration of 5 x 10^5 cells/2 ml. Subsequently, when cell confluency reached 100% in a 6-well culture plate, the differentiation medium (1% P/S, 2% horse serum) and peptides (5µM, 50µM) were replaced. After that, the differentiation medium (1% P/S, 2% horse serum) and peptides (5µM, 50µM) were replaced every two days, and cells were harvested three days after the first replacement and RNA was extracted using Trizol (Thermo Fisher Scientific, USA). The extracted RNA was used to synthesize DNA complementary to the RNA using TOPScript™ RT DryMIX (enzynomics, Korea), and then polymerase chain reaction (PCR) was performed on genes of early and mid-differentiation markers and markers involved in signaling involved in muscle protein synthesis using TOPsimple™ DryMIX-nTaq (enzynomics, Korea). Next, the reaction products were run on a 1.5% agarose gel to compare the mRNA expression levels of the markers for each sample. The primer sequences for the genes used in the PCR are listed in Table 3 below, and the GAPDH gene was used as a control group.
# According to the above experimental method, differentiation was induced in C2C12 myoblasts with 2% horse serum, and at the same time the peptide was treated for 3 days to confirm the effect of the peptide on differentiation.
compound,measurement,setting,value
C[C@@H](O)[C@H](NC(=O)CNC(=O)[C@@H](N)Cc1c[nH]cn1)C(=O)N[C@@H](Cc1ccc(O)cc1)C(=O)O,lipogenesis (Oil-Red O),HepG2 cells [1],inhibited
same,expression level of CPT1 protein,HepG2 cells [2],increased again
same,expression level of PGC1α protein,HepG2 cells [2],increased again
same,expression of Myf6 (gene) compared to the control group,C2C12 cells; 50 µM of peptide,1.8 fold
same,expression level of Myf4 (gene),"C2C12 cells; peptide 5 µM, 50 µM",increased in a concentration-dependent manner
same,expression level of Myf5 (gene),"C2C12 cells; peptide 5 µM, 50 µM",increased in a concentration-dependent manner
same,expression level of Myf6 (gene),"C2C12 cells; peptide 5 µM, 50 µM",increased
same,expression level of MyoD (gene),"C2C12 cells; peptide 5 µM, 50 µM",increased
same,expression level of mTOR (gene),"C2C12 cells; peptide 5 µM, 50 µM",increased in a concentration-dependent manner
